Measurements as given in article PMC8021898 (Frontiers in Pharmacology, 2021).

Biological target: SARS-CoV-2 PLpro (Severe acute respiratory syndrome coronavirus 2, UniProt P0DTD1)
Settings: 1–100 µM famotidine; 4 nM PLpro, 10 µM ISG15, 1 h

NC(N)=Nc1nc(CSCCC(N)=NS(N)(=O)=O)cs1 [Famotidine]
reduction of the amount of ISG15 cleaved by PLpro: does not significantly reduce the amount of ISG15 cleaved
